This passage reports activity change, negative = inhibition results from PubChem BioAssay AID1467 (National Center for Advancing Translational Sciences (NCATS), 2008).

The chains behind the UniProt entries cited, without tags or fusion partners.
UniProt P06280, whole entry: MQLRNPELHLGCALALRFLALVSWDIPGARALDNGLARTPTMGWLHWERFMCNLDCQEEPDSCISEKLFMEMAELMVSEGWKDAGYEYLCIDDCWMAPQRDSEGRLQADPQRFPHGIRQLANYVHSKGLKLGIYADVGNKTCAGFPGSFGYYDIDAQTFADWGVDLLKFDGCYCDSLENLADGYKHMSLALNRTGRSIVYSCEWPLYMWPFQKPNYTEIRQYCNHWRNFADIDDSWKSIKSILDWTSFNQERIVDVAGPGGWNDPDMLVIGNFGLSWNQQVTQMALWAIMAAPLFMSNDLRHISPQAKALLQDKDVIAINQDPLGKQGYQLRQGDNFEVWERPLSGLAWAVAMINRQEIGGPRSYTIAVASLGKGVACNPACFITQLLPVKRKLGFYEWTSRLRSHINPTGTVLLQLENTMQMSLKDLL

Where “and” joins values, the source holds several entries; their conditions need not be identical. Equal entries are not always repeated. The list shows a part of the results, in another mix than the full data. Calls of active or inactive are those of the source. Calls come from the whole dose curve; as a rule, active = well fitted curve in the direction sought with a large enough effect; inconclusive = small, poorly fitted or top-dose-only effect, or effect the other way, or another doubt; inactive = no such curve, though single readings can be large or run the other way.

In the experiment the target is Alpha-galactosidase A (Homo sapiens) (UniProt P06280). As to the kind of experiment: qHTS Assay for Inhibitors of Human alpha-Galactosidase at pH 4.5.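 Note: 0% = full activity with enzyme and -100% = basal without enzyme.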 The note with it: purified enzyme, 4-MU-alpha-Gal fluorescence; at 105 µM (top of the series) unless noted. The source says:
NIH Chemical Genomics Center [NCGC]
NIH Molecular Libraries Probe Production centers Network [MLPCN]
Assay Submitter (PI): Wei Zheng
Alpha-galactosidase is a homodimeric glycoprotein that hydrolyzes the terminal alpha-galactosyl moieties from glycolipids and glycoproteins. Deficiency of this enzyme results in Fabry Disease with progressive accumulation of globotriaosylceramide and other glycosphingolipids in vascular endothelial cells that causes renal failure, myocardial infarction and stroke, and premature death in patients. It has been reported that the improper folding and trafficking of alpha-galactosidase resulting from the genetic mutations may account for a significant numbers of Fabry patients. […] We optimized this alpha-galactosidase assay in 1536-well plate format for identifying the novel small molecule inhibitors with the structures other than the sugar analogs in order to develop the new pharmacological chaperones. Although this assay has the same protocol as PubChem AID 992, this is a separate project and, therefore, is published as a separate assay
NCGC Assay Protocol Summary:
This is a fluorogenic enzyme assay with 4-Methylumbelliferyl alpha-D-galactopyranoside as the substrate and human […] as the enzyme preparation. Upon the hydrolysis of this fluorogenic substrate, the resulting product, […]. 4-Methyllumbelliferone, can be excited at 365 nm and emits at 440 nm. This fluorescence which can be detected by a standard fluorescence plate reader. Data were normalized to the controls for basal activity (without enzyme) and 100% activity (with enzyme). In the AC50 values were determined from concentration-response data modeled with the standard Hill equation.
Assay buffer: 50 mM citric acid (titrated with potassium phosphate to pH 4.5), 0.005% Tween-20, pH 4.5. (pH 4.5 is an optimal condition for this enzyme assay)
1536-well assay protocol for the human alpha-galactosidase:
(1) Add 2 ul/well of enzyme (12 nM final)
(2) Add 23 nL compounds in DMSO solution. The final titration was 0.7 nM to 77 uM.
(3) Add 1 ul of substrate (400 uM final)
(4) Incubate at room temperature for 20 min.
(5) Add 2 ul stop solution (1M NaOH and 1M Glycine mixture, pH 10)
(6) Detect the assay plate in a ViewLux plate reader (PerkinElmer) with Ex=365 nm and Em=440nm.
Keywords: MLSMR, MLPCN, NIH Roadmap, qHTS, NCGC, : Alpha-galactosidase, Fabry Disease, pharmacological chaperone, chaperone therapy
In general terms: Quantitative high-throughput screening tests each substance at several concentrations.
With `COc1ccc(OP(C)(=O)Nc2ccccc2Br)cc1` (centres undefined), the activity change, negative = inhibition is inactive: 0.0932%. Turning to `COc1ccccc1OP(C)(=O)Nc1ccc(C)c(C)c1` (centres undefined), the activity change, negative = inhibition is inactive: 5.48%. Regarding `CN(C(=O)Cc1ccc(Cl)c(Cl)c1)[C@H]1CCCC[C@@H]1N1CCCC1`, the activity change, negative = inhibition is inactive: -5.08% [middle of 6 runs].

For `Cc1ccc(NP(=O)(Oc2ccccc2F)Oc2ccccc2F)nc1`, the activity change, negative = inhibition is inactive: -3.27%. Take `Cc1cc(SC(NC(=O)c2ccc(F)cc2)C(Cl)(Cl)Cl)ncn1` (centres undefined): the activity change, negative = inhibition is inactive: -6.33%. Turning to `CCOP(=O)(Nc1ccccc1)OCC`, the activity change, negative = inhibition was inactive: -5.06% and inactive: -3.5%.

`O=P(Nc1nc2ccc(Cl)cc2s1)(c1ccccc1)c1ccccc1`: the activity change, negative = inhibition is inactive: 0.573%. To `Cc1cc(C)cc(OP(C)(=O)Nc2cccc(C(F)(F)F)c2)c1` (centres undefined) belongs inactive: -0.976%; to `CC(=O)Nc1ccc([As](=O)(O)O)cc1`, inactive: -5.14%. For `O=C(O)c1ccccc1[As](=O)(O)O`, the activity change, negative = inhibition is inactive: -5.55%.

In the case of `CP(=O)(Nc1ccc(Cl)cc1Cl)Oc1ccccc1` (centres undefined), the activity change, negative = inhibition was inactive: -3.41%. As for `CP(=O)(OCCOc1ccccc1)OCCOc1ccccc1`, the figure is inactive: -5.28%; as for `Nc1cccc2ccc([As](=O)(O)O)cc12`, inactive: 1.28%. Consider `CCN(N=Nc1nonc1N)c1nonc1N`, for which the activity change, negative = inhibition was inactive: -1.91%. In the case of `Cc1nc2ccc3ccccc3c2o1.O=[N+]([O-])c1cc([N+](=O)[O-])c(O)c([N+](=O)[O-])c1`, the activity change, negative = inhibition was inactive: -5.11%.

On to `CN1CCCC(OC(=O)C(c2ccccc2)c2ccccc2)C1` (centres undefined), for which the activity change, negative = inhibition is inactive: -1.95%. To `CN(C)CCOC(=O)C(O)(c1ccccc1)C1CCCC1` (centres undefined) belongs inactive: 3.04%; to `Clc1ccc(Cl)c(NC2=NCC(CBr)S2)c1` (centres undefined), inactive: 6.22%. Turning to `Cc1ccc(OP(=O)(Nc2nccs2)Oc2ccc(C)cc2)cc1`, the activity change, negative = inhibition is inactive: -1.06%.

Turning to `COc1ccccc1OP(=O)(Nc1ccc(C)cn1)Oc1ccccc1OC`, the activity change, negative = inhibition was inactive: -3.16%.

In the case of `COc1ccc(OP(C)(=O)Nc2ccccn2)cc1` (centres undefined), the activity change, negative = inhibition was inactive: 2.7%.

For `Cc1ccc(N/C(=N/P(=O)(N2CCOCC2)N2CCOCC2)N2CCOCC2)cc1`, the activity change, negative = inhibition was inactive: 6.26%. As to `COc1ccccc1OP(C)(=O)Nc1ccc(Br)cc1` (centres undefined), the activity change, negative = inhibition was inactive: 1.64%.

Regarding `NC(=O)c1cc([N+](=O)[O-])cc([N+](=O)[O-])c1N`, the activity change, negative = inhibition is inactive: -7.54%. Take `CCc1ccc(OP(C)(=O)O)cc1`: the activity change, negative = inhibition is inactive: 1.08%. For `COc1ccccc1OP(C)(=O)Nc1ccc(C)cc1C` (centres undefined), the activity change, negative = inhibition was inactive: -0.623%. As for `CP(=O)(Nc1ccccn1)Oc1ccccc1` (centres undefined), the figure is inactive: -0.49%; as for `O=C(NC(Sc1ccncn1)C(Cl)(Cl)Cl)c1ccccc1` (centres undefined), inactive: -4.22%; as for `Cc1c2non([O-])c-2c(C)[n+](=O)[n+]1[O-]`, inactive: 4.81%.

`Oc1ccccc1CNc1ccccn1`: the activity change, negative = inhibition is inactive: -3.48%. On to `Nc1cc(N)c2nonc2c1[N+](=O)[O-]`, for which the activity change, negative = inhibition was inactive: -4.96%.

With `Cc1c(NP(C)(=O)Oc2ccc(C(C)C)cc2)c(=O)n(-c2ccccc2)n1C` (centres undefined), the activity change, negative = inhibition is inactive: -21.7%. On to `O=[N+]([O-])c1cc([N+](=O)[O-])c(Nc2ccccn2)c([N+](=O)[O-])c1`, for which the activity change, negative = inhibition was inactive: -10.8%. As to `CC(C)CC(=O)NC(Sc1ccc(Cl)cc1)C(Cl)(Cl)Cl` (centres undefined), the activity change, negative = inhibition was inactive: -1.68%. Regarding `CCc1ccc(OP(C)(=O)Nc2cccnc2)cc1` (centres undefined), the activity change, negative = inhibition is inactive: 6.62%. For the molecule `O=[N+]([O-])c1cc([N+](=O)[O-])c(CCNc2ccccc2)c([N+](=O)[O-])c1`, the activity change, negative = inhibition was inactive: 0.948%.

On to `CCc1nc2c(n1)c1c(non1O)c1c2no[n+]1[O-]`, for which the activity change, negative = inhibition was inactive: -0.699%. Take `Cc1ccc(NP(=O)(Oc2ccccc2)Oc2ccccc2)nc1`: the activity change, negative = inhibition is inactive: 0.297%. Regarding `CP(=O)(Oc1ccccc1)N1CCOC1=O` (centres undefined), the activity change, negative = inhibition is inactive: -0.689%. Turning to `O=C(OCCCN1CCCC1)C(O)(c1ccccc1)C1CCCCC1` (centres undefined), the activity change, negative = inhibition was inactive: -14.8%. Consider `OCCSCCO`, for which the activity change, negative = inhibition was inactive: 7.94%.

Take `CC(=O)N1C2C3N(C(C)=O)C1C1N(C(C)=O)C(C(N1C(C)=O)N3C(C)=O)N2C(C)=O`: the activity change, negative = inhibition was inactive: -2.79%. As for `O=[N+]([O-])c1cccc2n[nH]nc12`, the activity change, negative = inhibition was inactive: -2.53%. On to `COc1ccccc1OP(C)(=O)Nc1c(C)n(C)n(-c2ccccc2)c1=O` (centres undefined), for which the activity change, negative = inhibition was inactive: 1.42%. To `COc1ccc(C2=NCC(CBr)S2)cc1` (centres undefined) belongs inactive: -7.11%; to `COc1ccc(OP(C)(=O)Nc2ccc(Br)cc2)cc1` (centres undefined), inactive: -3.18%; to `CCN(CC)CC(O)COC(=O)C(O)(c1ccccc1)C1CCCCC1` (centres undefined), inactive: -0.001%.

With `CC1CCN(C(=O)Oc2c(Cl)cc(Cl)c3cccnc23)CC1`, the activity change, negative = inhibition is inactive: 2.54%. Regarding `CC(=O)C1=CCCC2CCC1N2` (centres undefined), the activity change, negative = inhibition was inactive: -6.54%. To `CN(C)C(=O)OCCc1n(C)cc[n+]1C` belongs inactive: 9.08%; to `CC(C)=N/N=C(\N)N[N+](=O)[O-]`, inactive: -0.153%; to `CN(C)C(=O)c1c([N+](=O)[O-])cc([N+](=O)[O-])cc1[N+](=O)[O-]`, inactive: -1.3%.

`CP(=O)(Nc1ccc(Cl)cc1)Oc1ccc(F)cc1` (centres undefined): the activity change, negative = inhibition is inactive: 6.73%. As to `CCN(/C(=N/P(=O)(N1CCOCC1)N1CCOCC1)N1CCOCC1)c1ccc(OC)cc1`, the activity change, negative = inhibition was inactive: 0.334%.

On to `C[N+]1=C2C=CC=CC=C2SC12C([N+](=O)[O-])=CC([N+](=O)[O-])=C[C-]2[N+](=O)[O-]` (centres undefined), for which the activity change, negative = inhibition was inactive: -3.69%. With `COc1ccccc1OP(C)(=O)Nc1ccccc1Br` (centres undefined), the activity change, negative = inhibition is inactive: 6.62%. As for `Nc1ccc([As](=O)(O)c2ccc(N)cc2)cc1`, the figure is inactive: 1.16%; as for `CC(C)(C)c1ccc(OP(C)(=O)O)cc1`, inactive: -2.02%; as for `CP(=O)(OC12CC3CC(CC(C3)C1)C2)OC12CC3CC(CC(C3)C1)C2`, inactive: -3.93%. With `O=C(Nc1cc([As](=O)(O)O)ccc1O)c1ccccc1`, the activity change, negative = inhibition was inactive: 6.74%. Regarding `CCOC(=O)c1ccc(NP(C)(=O)Oc2ccc(Cl)cc2)cc1` (centres undefined), the activity change, negative = inhibition was inactive: -6.45%. On to `O=C(O)CNc1ccc([As](=O)(O)O)cc1`, for which the activity change, negative = inhibition is inactive: -5.36%. With `O=[N+]([O-])c1cccc(NC2=NCC(CBr)S2)c1` (centres undefined), the activity change, negative = inhibition was inactive: -11.3%. As for `C/C1=C2N=C(/C=C3N=C(/C(C)=C4\[N-][C@@](C)([C@H]5N=C1[C@@](C)(CCC(=O)NC[C@H](C)OP(=O)([O-])O[C@@H]1[C@H](O)[C@H](n6cnc7cc(C)c(C)cc76)O[C@@H]1CO)[C@@H]5CC(N)=O)[C@](C)(CC(N)=O)[C@H]4CCC(N)=O)[C@@](C)(CC(N)=O)[C@@H]\3CCC(N)=O)C(C)(C)[C@@H]/2CCC(N)=O.[C-]#N.[Co+3]`, the activity change, negative = inhibition was inactive: 1.01%.
